These results are taken from article PMC4790425 (Journal of medicinal chemistry, 2015).

Amino acid sequences for entries named in this document (tags omitted).
UniProt P32238, whole entry: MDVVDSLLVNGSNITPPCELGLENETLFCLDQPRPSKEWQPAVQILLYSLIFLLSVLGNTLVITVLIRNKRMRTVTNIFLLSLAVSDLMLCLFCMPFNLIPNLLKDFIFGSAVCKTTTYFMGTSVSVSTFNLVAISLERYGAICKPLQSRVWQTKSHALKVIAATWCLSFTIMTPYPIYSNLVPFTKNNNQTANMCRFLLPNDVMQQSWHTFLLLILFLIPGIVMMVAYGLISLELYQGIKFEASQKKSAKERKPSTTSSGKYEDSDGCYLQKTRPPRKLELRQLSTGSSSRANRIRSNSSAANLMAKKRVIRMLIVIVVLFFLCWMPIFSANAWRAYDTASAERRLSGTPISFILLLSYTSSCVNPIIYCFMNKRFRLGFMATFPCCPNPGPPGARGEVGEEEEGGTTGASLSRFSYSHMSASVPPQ
UniProt P32238, whole entry V125A: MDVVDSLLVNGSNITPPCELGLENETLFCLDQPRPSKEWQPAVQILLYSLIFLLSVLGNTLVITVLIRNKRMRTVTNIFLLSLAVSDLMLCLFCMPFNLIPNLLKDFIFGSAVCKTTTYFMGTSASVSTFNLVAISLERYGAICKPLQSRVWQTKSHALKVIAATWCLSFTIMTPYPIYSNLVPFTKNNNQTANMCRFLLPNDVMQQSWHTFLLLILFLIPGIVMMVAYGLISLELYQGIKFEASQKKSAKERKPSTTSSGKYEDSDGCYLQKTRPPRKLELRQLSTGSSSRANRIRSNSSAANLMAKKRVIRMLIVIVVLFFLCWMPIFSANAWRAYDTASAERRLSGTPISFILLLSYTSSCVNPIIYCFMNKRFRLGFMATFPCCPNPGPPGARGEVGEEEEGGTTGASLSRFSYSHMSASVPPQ

Each structure is given as a SMILES string.

For experiment [1], the target named is T1, CCK1R WT (Homo sapiens, UniProt P32238). Nature of the experiment: Competition binding with 125I-BDZ-1, CHO membranes.
Experiment [2] addresses T1, CCK1R WT. Nature of the experiment: cell-based.
In experiment [3] the target is T1, CCK1R WT. Nature of the experiment: Competition binding with 125I-CCK, CHO membranes.
The target of experiment [4] is T2, CCK2R WT (Homo sapiens, UniProt P32239).
T2 sequence (P32239 1-447): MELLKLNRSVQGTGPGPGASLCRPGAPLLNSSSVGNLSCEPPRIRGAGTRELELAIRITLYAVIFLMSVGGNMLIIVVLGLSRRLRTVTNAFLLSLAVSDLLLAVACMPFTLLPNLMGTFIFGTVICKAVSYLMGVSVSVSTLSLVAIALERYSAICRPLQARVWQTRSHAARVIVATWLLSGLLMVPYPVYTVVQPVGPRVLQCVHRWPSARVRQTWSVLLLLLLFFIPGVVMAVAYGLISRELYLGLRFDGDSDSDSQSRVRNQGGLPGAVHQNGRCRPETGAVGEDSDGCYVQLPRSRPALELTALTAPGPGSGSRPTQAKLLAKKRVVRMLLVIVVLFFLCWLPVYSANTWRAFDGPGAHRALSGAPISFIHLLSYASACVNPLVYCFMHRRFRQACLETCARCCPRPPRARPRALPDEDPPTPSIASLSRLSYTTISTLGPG
Put plainly: Competition binding with 125I-CCK, CHO membranes.

Experiment [5] deals with T2, CCK2R WT. Put plainly: Competition binding with 125I-BDZ-2, CHO membranes.
The target in a further experiment is CCK1R V125A (V3.36A) (Homo sapiens, UniProt P32238, V125A). Put plainly: cell-based.

`Cc1cc(C)cc(C[C@H]2CCCCN2C(=O)CN2C(=O)[C@@H](Cc3n[nH]c4ccccc34)c3nnc(-c4ccccc4)n3-c3ccccc32)c1` [PF-04756956, (4S)-6-{2-[(2R)-2-(3,5-dimethylbenzyl)piperidin-1-yl]-2-oxoethyl}-4-(1H-indazol-3-ylmethyl)-1-phenyl-4H-[1,2,4]triazolo[4,3-a][1,5]benzodiazepin-5(6H)-one]: the Kb is 912 nM at CCK1R WT [1], 28.8 nM at CCK1R WT [3], 214 nM on CCK2R WT [4] and 69.2 nM at CCK2R WT [5]. Besides, on CCK1R WT [2], a half-maximal response (EC50) required 0.417 nM. Further, the IC50 (as a rule, the concentration that gives 50% inhibition) on CCK1R WT [3] was 38.9 nM.

As for `CC(C)N(Cc1ccccc1)C(=O)CN1C(=O)[C@@H](Cc2c[nH]c3ccccc23)c2nnc(-c3ccccc3)n2-c2ccccc21` [CE-326597, N-benzyl-2-[(4S)-4-(1H-indol-3-ylmethyl)-5-oxo-1-phenyl-4,5-dihydro-6H-[1,2,4]triazolo[4,3-a][1,5]benzodiazepin-6-yl]-N-isopropylacetamide], the EC50 (usually the concentration giving half of the maximal effect) at CCK1R V125A (V3.36A) was 3.09 nM. Moreover, the IC50 is 513 nM at CCK1R WT [1] and 30.2 nM at CCK1R WT [3]. The Kb on CCK1R WT [1] was 166 nM; on CCK1R WT [3], 24.5 nM; on CCK2R WT [4], 70.8 nM; at CCK2R WT [5], 24.5 nM.
